Source: US10945997B2, “Polymer derivative of macrolide immunosuppressant” (Nippon Kayaku Kabushiki Kaisha, priority 2016, dated 2021)

Settings: rat, in vivo, iv, 5 mg/kg

For “Tacrolimus-Bonded Polyethylene Glycol-αβ-Polyaspartic Acid Block Copolymer [Comparative Example 1]”, the C72 h was 0.361 ng/mL.
